Test system: pregnant Sprague-Dawley rats
Test: fentanyl-induced catalepsy in pregnant dams
Conditions: for maximum group mean of catalepsy: 0.1 mg/kg/day minipump plus daily fentanyl 100 μg/kg s.c., cutoff 30 seconds

| Structure (SMILES) | maximum group mean of catalepsy (GD 14) [s] | time to return to pre-FENT levels after FENT injection (GD 20) | maximum group mean of catalepsy (GD 20) [s] |
| --- | --- | --- | --- |
| CO[C@@]12CC[C@@]3(C[C@@H]1[C@](C)(O)C(C)(C)C)C1Cc4ccc(O)c5c4[C@@]3(CCN1CC1CC1)[C@H]2O5 [BUP, buprenorphine] | 24.13 | over 60 minutes | 20.78 |
| [2H]C([2H])(C1CC1)N1CC[C@]23c4c5ccc(O)c4O[C@H]2[C@@]2(OC)CC[C@@]3(C[C@@H]2[C@](C)(O)C(C)(C)C)C1C5 [BUP-D2, (4aS,6R,7R,7aR,12bS)-3-(cyclopropylmethyl-d2)-6-((S)-2-hydroxy-3,3-dimethylbutan-2-yl)-7-methoxy-1,2,3,4,5,6,7,7a-octahydro-4a,7-ethano-4,12-methanobenzofuro[3,2-e]isoquinolin-9-ol] | 12.95 | 30 min | 10.73 |

— patent US20260174855A1 (priority 2022, published 2026)
